Ab-95 light chain CDR variants: yeast mating affinities

Target peptide (SARS-CoV-2 spike, HR2 region): PDVDLGDISGINAS

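The starting antibody came from a phage panning campaign against this peptide. In library AAYL52, one, two or three CDR residues were substituted; doubles and triples were drawn at random. Affinity was read by AlphaSeq, a pooled yeast mating assay with surface-displayed partners. Mating (16 h, 30 °C) was followed by selection of diploids and sequencing of their barcodes. Read counts were normalised to the haploid input and turned into Kd by a linear fit to BCL2-family pairs of known affinity, for each replicate. Mating was done three times.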

Parent: Ab-95, a human scFv built as VH, a 15-residue (Gly4Ser)3 linker, VL. Only the CDRs of the light chain vary.
VH: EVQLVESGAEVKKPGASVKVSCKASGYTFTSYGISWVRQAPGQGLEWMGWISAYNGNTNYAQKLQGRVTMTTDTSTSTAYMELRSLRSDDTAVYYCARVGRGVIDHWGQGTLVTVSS
VL: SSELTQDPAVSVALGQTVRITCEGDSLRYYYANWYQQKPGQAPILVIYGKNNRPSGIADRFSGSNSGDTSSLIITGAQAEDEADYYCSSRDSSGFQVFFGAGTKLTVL

Variants are written as CDR1, CDR2 and CDR3 of the light chain (limits as in the source). Parent: EGDSLRYYYAN, GKNNRPS, SSRDSSGFQVF. Scale: log10 of Kd in nM, estimated from mating counts; low values are strong binders. A mean of the replicates is given; it leaves out those without a signal. Where no diploid with the target was found in any replicate, the entry reads "not detected": below detection, most likely a poor binder, though not proof of it.

| # | CDR-L1 | CDR-L2 | CDR-L3 | mean, log10 nM | seen in |
|---|---|---|---|---|---|
| 1 | YGDSCRYYYAN | GKNNRPS | SWRDSSGFQVF | 3.90 | 1 of 3 |
| 2 | EEDSLGYYYAN | GKNNRPS | SSRMSSGFQVF | 4.26 | 1 of 3 |
| 3 | EGDSDRYYVAW | GKNNRPS | SSRDSSGFQVF | 1.80 | 3 of 3 |
| 4 | AGDTLRYRYAN | GKNNRPS | SSRDSSGFQVF | 1.75 | 3 of 3 |
| 5 | EKDSLRYYYVQ | GKNNRPS | SSRDSSGFQVF | 3.04 | 2 of 3 |
| 6 | EGDSLRKYYAG | GKNNRPS | SSRDSSGIQVF | 2.98 | 3 of 3 |
| 7 | EVDSLRYYYAN | GKNNRPS | SSRDSFGFQVF | 3.83 | 2 of 3 |
| 8 | EGDSLRYVYAN | GFNERPS | SSRDSSGFQVF | 3.36 | 3 of 3 |
| 9 | EGDSLRYMYAN | GKNNRPS | SSRDSSGFKFF | 2.37 | 1 of 3 |
| 10 | EGDSLRMYYAN | EKNNRES | SSRDSSGFQVF | 4.93 | 2 of 3 |
| 11 | EHDSLRYYYAN | GKNNRPS | SSLDSSDFQVF | 3.29 | 1 of 3 |
| 12 | EGDSLRDYYAN | GKNNRPS | SKRDSVGFQVF | 2.71 | 3 of 3 |
| 13 | EGDSLRYGYAN | GKNIRPS | SSRFSSGFQVF | 1.56 | 3 of 3 |
| 14 | GGDSLRYYYAN | LWNNRPS | SSRDSSGFQVF | 5.24 | 2 of 3 |
| 15 | YGDSLRYYYAD | GKQNRPS | SSRDSSGFQVF | 3.56 | 2 of 3 |
| 16 | EGDMLRYYYAN | GWNNRPS | SSRDSSGQQVF | 2.57 | 3 of 3 |
| 17 | EGDALDYYYAN | GKNNRPS | SSRDSSGFQLF | 2.73 | 3 of 3 |
| 18 | EGDSLRLYYAS | GKNNRPS | SSRDSSGFQVL | 4.13 | 2 of 3 |
| 19 | EADSLRYYYAN | GKNNRPS | SNRDSSLFQVF | 3.96 | 1 of 3 |
| 20 | EGDSLRYYYAD | GWNNRPS | SSRDSSLFQVF | not detected | 0 of 3 |
| 21 | EGDSLRVYCAN | GKNNRPS | SSRDSSGCQVF | 3.25 | 1 of 3 |
| 22 | EGDSLRYYYAL | GKNNRPS | SQRDSSGFQLF | 3.35 | 1 of 3 |
| 23 | EGDAFRYYYAN | GKNNRPS | SSRLSSGFQVF | 3.73 | 3 of 3 |
| 24 | EGDSLRYYYAN | GKNDRPS | SSTDSSGFQVF | 1.96 | 3 of 3 |
| 25 | MGDSLRYYDAN | GKNNRPS | SSRDSSGFQVF | 0.69 | 3 of 3 |
| 26 | EGDSLRYYYAD | GKNNRPS | SSRSSSGFEVF | 3.37 | 2 of 3 |
| 27 | EGDSLRYYTAN | GKNNRPS | SSNDSSGFQSF | 4.58 | 1 of 3 |
| 28 | EGDSLGYYYAY | GKNNRPS | SSRDSNGFQVF | not detected | 0 of 3 |
| 29 | EDDSLRYYYAN | GKNNTPS | SDRDSSGFQVF | 4.28 | 2 of 3 |
| 30 | EGDSLRYYWWN | GKNNGPS | SSRDSSGFQVF | 4.25 | 2 of 3 |
| 31 | EGDSLRYYYAN | GKNNRPS | CVGDSSGFQVF | 5.05 | 2 of 3 |
| 32 | EGDSLRYYYAN | GKNNSPV | SSRDSSGFEVF | 3.48 | 2 of 3 |
| 33 | EGGSLRYYYAN | IKNNRPS | SSRDSKGFQVF | 5.10 | 1 of 3 |
| 34 | EGDSLRYYYAN | KKNERPS | SSRDSSGFQVF | 3.05 | 3 of 3 |
| 35 | EGDSLRYYYAN | WKNNRNS | SSRDQSGFQVF | 4.62 | 3 of 3 |
| 36 | EGDSLRYYYAN | GKMNRFS | SSRESSGFQVF | 5.12 | 1 of 3 |
| 37 | EGDSLRYYYAN | LKNNRNS | SSRDSSGFQVN | not detected | 0 of 3 |
| 38 | EGDSLRYYYAN | GDNNRPS | SSRDSSMFQQF | 2.20 | 3 of 3 |
| 39 | EGDSLRYYYAN | RKNNRPS | SSRDHSGFQVF | 5.59 | 1 of 3 |
| 40 | EGDSLRYDYAP | GKNNRPS | SSRDSSLFQVF | not detected | 0 of 3 |
| 41 | EGDSGRYRYAN | CKNNRPS | SSRDSSGFQVF | 5.15 | 2 of 3 |
| 42 | EGDSLRYYYAN | GVKNRPS | SSRDSSGFQVF | 3.83 | 2 of 3 |
| 43 | EGDQLRYYYAN | GKNNYHS | SSRDSSGFQVF | 4.72 | 2 of 3 |
| 44 | EGDSLRYYYAN | GKNNLPA | SSRDSSGFQVF | 2.59 | 3 of 3 |
| 45 | EGDSLRPYYAN | GKNMRPS | SSRDPSGFQVF | 2.70 | 3 of 3 |
| 46 | EGDPLPYYYAN | GKNNRPC | SSRDSSGFQVF | 2.89 | 3 of 3 |
| 47 | EGDTLRYYYAN | GKNNRDS | SSRDSSGFQVF | 3.34 | 2 of 3 |
| 48 | EGDSLRYYYAT | GKNNRFS | SSRDSSGFQVF | 4.34 | 2 of 3 |
| 49 | EGDVLRYYYAN | GKNNRPS | SSRDSSGFVVF | not detected | 0 of 3 |
| 50 | EGDSLRYYYAN | GHNNRPS | SYRDSSGFQNF | not detected | 0 of 3 |
| 51 | ECDSLRYYYAP | WKNNRPS | SSRDSSGFQVF | 5.21 | 1 of 3 |

For reference, the parent read 2.31 as the reference entry and 2.25 as a member of this library. Empty control strains, which show no peptide, gave a signal in 28% of pairings with library AAYL52; the median was 3.91 and 95% of these signals were weaker than 2.90. No background was subtracted.

The measurements come from Engelhart et al. 2022 (doi:10.1038/s41597-022-01779-4) through the FLAb antibody collection.